Measured values as given in patent publication US9120744B2, “Plasminogen activator inhibitor-1 inhibitors and methods of use thereof to modulate lipid metabolism” (THE REGENTS OF THE UNIVERSITY OF MICHIGAN, priority 2007, dated 2015).

Protein sequences, listed by entry. Tags and fused reporters are not part of them. Residues count along the entry.
UniProt P22777, 23-402: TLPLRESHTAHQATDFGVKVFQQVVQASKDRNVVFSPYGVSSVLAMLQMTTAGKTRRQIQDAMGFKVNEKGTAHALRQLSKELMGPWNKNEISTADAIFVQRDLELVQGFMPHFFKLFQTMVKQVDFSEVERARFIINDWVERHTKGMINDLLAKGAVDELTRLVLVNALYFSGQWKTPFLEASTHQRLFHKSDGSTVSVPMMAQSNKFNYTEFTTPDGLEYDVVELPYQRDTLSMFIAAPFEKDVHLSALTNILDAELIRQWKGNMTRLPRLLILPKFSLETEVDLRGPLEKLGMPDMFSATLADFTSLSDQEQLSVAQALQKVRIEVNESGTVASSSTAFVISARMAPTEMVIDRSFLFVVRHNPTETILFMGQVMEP

Biological target: active mouse PAI-1 (Mus musculus (Mouse), UniProt P22777)
Experiment: Ex vivo plasma Luminex assay, mouse plasma spiked with active mouse PAI-1
Type: biochemical
Settings: mouse plasma spiked with active mouse PAI-1 3-4 ng/mL

| SMILES | IC50 [µM] |
| --- | --- |
| O=C(OC[C@H]1OC(OC(=O)c2cc(O)c(O)c(O)c2)[C@H](OC(=O)c2cc(O)c(O)c(O)c2)[C@@H](OC(=O)c2cc(O)c(O)c(O)c2)[C@@H]1OC(=O)c1cc(O)c(O)c(O)c1)c1cc(O)c(O)c(O)c1 (some centres unmarked) [CDE-001] | 82 |
| O=C(OC[C@H]1O[C@@H](OC(=O)c2cc(O)c(O)c(O)c2)[C@@H](OC(=O)c2cc(O)c(O)c(O)c2)[C@@H](OC(=O)c2cc(O)c(O)c(O)c2)[C@@H]1OC(=O)c1cc(O)c(O)c(O)c1)c1cc(O)c(O)c(O)c1 [CDE-002] | 123 |
| O=C(OC[C@H]1O[C@H](OC(=O)c2cc(O)c(O)c(O)c2)[C@H](OC(=O)c2cc(O)c(O)c(O)c2)[C@@H](OC(=O)c2cc(O)c(O)c(O)c2)[C@H]1OC(=O)c1cc(O)c(O)c(O)c1)c1cc(O)c(O)c(O)c1 [CDE-003] | 100 |
| O=C(OC[C@H]1O[C@@H](OC(=O)c2cc(O)c(O)c(O)c2)[C@H](OC(=O)c2cc(O)c(O)c(O)c2)[C@@H](OC(=O)c2cc(O)c(O)c(O)c2)[C@H]1OC(=O)c1cc(O)c(O)c(O)c1)c1cc(O)c(O)c(O)c1 [CDE-004] | 133 |
| O=C(OC[C@H]1OC(OC(=O)c2cc(O)c(O)c(O)c2)[C@H](OC(=O)c2cc(O)c(O)c(O)c2)[C@@H](OC(=O)c2cc(O)c(O)c(O)c2)[C@H]1OC(=O)c1cc(O)c(O)c(O)c1)c1cc(O)c(O)c(O)c1 (some centres unmarked) [CDE-066] | 63.2 |
